Literature values in patent US20180303845A1, “USE OF TLR8 AGONISTS TO TREAT CANCER” (VentiRx Pharmaceuticals, Inc., priority 2015, published 2018).

What was measured:
[1] = test system: CD4^+FOXP3^+ intratumoral Treg; conditions: neoadjuvant single-agent cetuximab, HNC patients; cited from earlier work
[2] = test system: CTLA-4^+FOXP3^+ Treg; conditions: in combination with TGF-β and T cell receptor triggering; cited from earlier work

Question: With “Cetuximab: anti-EGFR monoclonal antibody” as the substance, how does the “frequency of CD4^+FOXP3^+ intratumoral Treg expressing CTLA-4, CD39 and TGF-β” value [1] read?
Answer: increased

Question: And the “CTLA-4^+FOXP3^+ Treg in vitro” value [2]?
Answer: expanded
